From patent publication US9456972B2, “Niacin-peptide having skin whitening activity and use for same” (priority 2011, dated 2016)

Key:
Format in all cases: cell-based, mouse
B16F10 melanocytes = assay: Screening of niacin-peptides: inhibition of melanogenesis against α-MSH; set-up: key to Screening value: Inhibition of melanogenesis against α-MSH: relative to absorbance (490 nm) of α-MSH-only positive control; details: for Screening value: Inhibition of melanogenesis against α-MSH: 20 μg/ml α-MSH plus 10 ng/ml peptide, 3 days, UV 490 nm, α-MSH-only positive control as standard; for inhibition rate of melanogenesis: α-MSH-induced melanocytes, compared with the control group (Table 1)
Description: The present inventors screened skin whitening peptides by measuring decrease in melanogenesis using the niacin-peptide libraries prepared in Example 1. B16F10 melanocytes (the Korean Cell Line Bank) were incubated with α-MSH to induce melanogenesis and the inhibition of melanogenesis by the peptide libraries was analyzed. The mouse melanocytes were cultured at 37° C. in 5% CO2 atmosphere in DMEM supplemented with 10% FBS. The cells were seeded in each well of a 96-well plate (5×10^4 cells/well) and their attachment was verified. Afterwards, the control group was incubated with only solvent, the positive control group was incubated with 20 μg/ml of α-MSH and the other wells was incubated with 20 μg/ml of α-MSH and 10 ng/ml of peptides for 3 days.
The inhibition rates of melanogenesis by treatment of each peptide prepared in Example 1 were measured at UV 490 nm. The inhibition rates were calculated using the absorbance value of the positive control group incubated with only α-MSH as a standard, which are summarized in Table 1. The candidate peptides analyzed to show excellent screening results were selected and synthesized in a 100-μmole scale for further experiments. FIG. 1 represents the screening result of niacin-peptides.

[1] = system: TRP1 (tyrosinase-related protein-1); assay: RT-PCR of melanogenesis gene expression in α-MSH-treated B16F10 cells; details: 20 μg/ml α-MSH plus 1, 10 and 50 μg/ml, 4 days
Description: (§1) To more clearly check activities of niacin-peptides on skin whitening in α-MSH-treated B16F10 melanoma cells, mRNA level of TRP1 (tyrosinase-related protein-1), TRP2 and microphtnalmia-associated transcription factor (MITF) was measured using RT-PCR.
(§2) First, B16F10 cells were plated at a 6-well plate in a density of 1×10^5 cells/well and cultured for 3 days. After cell adhesion was observed, medium was changed with a fresh medium containing 2% serum. Cells were incubated with each test group for 4 days: (a) only solvent as negative control; (b) 20 μg/ml α-MSH as a positive control; (c) 20 μg/ml α-MSH plus 1, 10 and 50 μg/ml peptides (PG, PS, ET and VS); and (d) 20 μg/ml α-MSH plus 1, 10 and 50 μg/ml niacin-peptides (Nicotinoyl-PG, Nicotinoyl-PS, Nicotinoyl-ET and Nicotinoyl-VS). Subsequently, mRNA were extracted from cells and RT-PCR was carried out using primers for TRP1, TRP2 and MITF. The primer sequence is as follows: TRP1 F-primer, 5′-TGGCCCAGGATCAGTAGGT-3′ (SEQ ID NO: 54) and TRP1 R-primer, 5′-CATCAACACTTCCAGCA-3′ (SEQ ID NO: 55); TRP2 F-primer, 5′-GGCTACAATTACGCCGTTG-3′ (SEQ ID NO: 56) and TRP2 R-primer, 5′-[…]-3′ (SEQ ID NO: 57); and MITF F-primer, 5′-[…]-3′ (SEQ ID NO: 58) and MITF R-primer, 5′-[…]-3′ (SEQ ID NO: 59), GAPDH F-primer, 5′-GAGCCAAACGGGTCATCA-3′ (SEQ ID NO: 60) and GAPDH R-primer, 5′-CATATTCGTGGTTCACACC-3′ (SEQ ID NO: 61).

TRP2 = assay: as above; details: 20 μg/ml α-MSH plus 1, 10 and 50 μg/ml, 4 days
Description: as §1, §2

[2] = system: microphtnalmia-associated transcription factor (MITF); assay: as above; details: 20 μg/ml α-MSH plus 1, 10 and 50 μg/ml, 4 days
Description: as §1, §2

Substance | Screening value: Inhibition of melanogenesis against α-MSH (B16F10 melanocytes) | inhibition rate of melanogenesis (B16F10 melanocytes) | expression of TRP-1 gene (mRNA, RT-PCR) [1] | expression of TRP-2 gene (mRNA, RT-PCR) (TRP2) | expression of MITF gene (mRNA, RT-PCR) [2]
nicotinoyl-EQ (N-terminal nicotinoyl; niacin-linked peptide) | 0.9 |  |  |  | 
nicotinoyl-ET (N-terminal nicotinoyl; niacin-linked peptide) | 0.60 | 40% | inhibit the expression | inhibit the expression | inhibit the expression
nicotinoyl-FP (N-terminal nicotinoyl; niacin-linked peptide) | 0.8 |  |  |  | 
nicotinoyl-IF (N-terminal nicotinoyl; niacin-linked peptide) | 1 |  |  |  | 
nicotinoyl-NI (N-terminal nicotinoyl; niacin-linked peptide) | 0.8 |  |  |  | 
nicotinoyl-NL (N-terminal nicotinoyl; niacin linked to peptide′s N-terminal) | 0.8 |  |  |  | 
nicotinoyl-NY (N-terminal nicotinoyl; niacin-linked peptide) | 0.8 |  |  |  | 
nicotinoyl-PG (N-terminal nicotinoyl; niacin-linked peptide) | 0.70 | 30% | inhibit the expression | inhibit the expression | inhibit the expression
nicotinoyl-QI (N-terminal nicotinoyl; niacin-linked peptide) | 0.82 |  |  |  | 
nicotinoyl-VA (N-terminal nicotinoyl; niacin-linked peptide) | 0.83 |  |  |  | 
nicotinoyl-VF (N-terminal nicotinoyl; niacin-linked peptide) | 0.81 |  |  |  | 
nicotinoyl-VS (N-terminal nicotinoyl; niacin-linked peptide) | 0.65 | 35% | inhibit the expression | inhibit the expression | inhibit the expression
nicotinoyl-VT (N-terminal nicotinoyl; niacin-linked peptide) | 0.78 |  |  |  | 
nicotinoyl-WM (N-terminal nicotinoyl; niacin-linked peptide) | 0.81 |  |  |  | 
nicotinoyl-YR (N-terminal nicotinoyl; niacin-linked peptide) | 0.79 |  |  |  | 
